Measured values: patent publication US20230293708A1, “CONJUGATE OF SAPONIN AND SINGLE-DOMAIN ANTIBODY, PHARMACEUTICAL COMPOSITION COMPRISING SAID CONJUGATE, THERAPEUTIC USE THEREOF” (SAPREME TECHNOLOGIES B.V., priority 2020, published 2023)

Tests used:
SK-BR-3 cells = assay: Cell viability (MTS) assay, cell killing; format: cell-based, human; conditions: mAb-SO1861 (DAR4) titrated + fixed 50 pM bivalentVHHEGFR-dianthin
Procedure: (§1) After treatment the cells were incubated for 72 hr at 37° C. before the cell viability was determined by a MTS-assay, performed according to the manufacturer's instruction (CellTiter 96® AQueous One Solution Cell Proliferation Assay, Promega). Briefly, the MTS solution was diluted 20× in DMEM without phenol red (PAN-Biotech GmbH) supplemented with 10% FBS. The cells were washed once with 200 μL/PBS well, after which 100 μL diluted MTS solution was added/well. The plate was incubated for approximately 20-30 minutes at 37° C. Subsequently, the OD at 492 nm was measured on a Thermo Scientific Multiskan FC plate reader (Thermo Scientific). For quantification the background signal of ‘medium only’ wells was subtracted from all other wells, before the cell viability percentage of treated/untreated cells was calculated, by dividing the background corrected signal of treated wells over the background corrected signal of the untreated wells (×100).
(§2) Cells were seeded in a 96 well plate at 5.000-10.000 c/w in 100 μL/well and incubated overnight at 37° C. […] The media was removed from the cell culture plate and replaced by 180 μL culture media, followed by the addition of 20 μL treatment-mix/well. […] In the case that endosomal acidification inhibitors (chloroquine (Sigma Aldrich) or bafilomycin A1 (Enzo Life Sciences)) were used, the cell culture media in step 1 of treatment was replaced by 180 μL media containing 1 μM chloroquine or 0.2 μM bafilomycin A1. The plate was incubated for 1 hour at 37° C., before the 10× treatment-mix samples were added. The remaining incubation and treatment steps were performed according to standard procedures known in the field.
(§3) After treatment the cells were incubated for 72 hr at 37° C. before the cell viability was determined by a MTS-assay, performed according to the manufacturer's instruction (CellTiter 96® AQueous One Solution Cell Proliferation Assay, Promega). Briefly, the MTS solution was diluted 20× in DMEM without phenol red (PAN-Biotech GmbH) supplemented with 10% FBS (PAN-Biotech GmbH). The cells were washed once with 200 μL PBS per well, after which 100 μL diluted MTS solution was added per well. The plate was incubated for approximately 20-30 minutes at 37° C. Subsequently, the optical density at 492 nm was measured on a Thermo Scientific Multiskan FC plate reader (Thermo Scientific). For quantification the background signal of ‘medium only’ wells was subtracted from all other wells, before the ratio of […].

MDA-MB-468 cells = assay: Cell viability (MTS) assay, cell killing; format: cell-based, human
Procedure: as §1, §2, §3

A431 cells = assay: Cell viability (MTS) assay, cell killing; format: cell-based, human
Procedure: as §1, §2, §3

A2058 cells = assay: Cell viability (MTS) assay, cell killing; format: cell-based, human
Procedure: as §1, §2, §3

HeLa cells = assay: Cell viability (MTS) assay, cell killing; format: cell-based, human; conditions: conjugate titrated + fixed 50 pM trastuzumab-saporin (Example 14)
Procedure: as §2
as §3, with “Briefly, the MTS solution was diluted 20× in DMEM without phenol red (PAN-Biotech GmbH) supplemented with 10% FBS (PAN-Biotech GmbH). The cells were washed once with 200 μL PBS per well, after which 100 μL diluted MTS solution was added per well. The plate was incubated for approximately 20-30 minutes at 37° C.” left out

human A431 tumor cells = assay: A431 xenograft mouse tumor model, tumor volume; format: in vivo
Procedure: Female Balb/c nude mice were injected subcutaneously with a suspension of human A431 tumor cells. Under the skin of the mice, a human epidermal carcinoma developed in the xenograft animal tumor model. After injection of the tumor cells, the xenograft tumor was allowed to develop to a size of approximately 170-180 mm^3. The A431 tumor cells have the following characteristics: high EGFR expressors, medium CD71 expressors, low HER2 expressors.
In Table 6A, the results of the treatment of control mice and tumor-bearing mice are presented. Tumor-bearing mice were treated with the indicated antibodies directed to either human Her2/neu, human EGFR, or human CD71, which are cell-surface receptors on the xenograft tumor. Cetuximab was covalently conjugated with saponin SO1861. […] The dose of the ADCs was sub-optimal in the tumor model. That is to say, from previous experiments, it was established at which sub-optimal dose of the ADCs no tumor-regression or arrest of tumor growth would be observable.
The 2 target 2-components system (2T2C) is the combination treatment of mAb1-SO1861 and mAb2-protein toxin, (FIG. 1B-D).

[1] = mAb-SO1861 (DAR4) titrated + fixed 50 pM bivalentVHHEGFR-dianthin, read-out: IC50
[2] = read-out: IC50 (calculated on concentration SO1861), + fixed 10 pM EGF-dianthin
[3] = read-out: IC50 (calculated on concentration SO1861), + fixed 10 pM cetuximab-saporin
[4] = read-out: IC50 (calculated on concentration SO1861), SO1861 or mAb-SO1861 titrated + fixed 50 pM trastuzumab-saporin

Cetuximab-SO1861 (DAR4): SO1861-EMCH conjugated via cysteine residues to cetuximab with a DAR 4
IC50 (SK-BR-3 cells): > 100 nM | IC50 (MDA-MB-468 cells; [1]): 0.5 nM | IC50 (A431 cells; [1]): 4 nM | IC50 (A2058 cells; mAb-SO1861 (DAR4) titrated + fixed 50 pM bivalentVHHEGFR-dianthin): > 100 nM

Cetuximab-SO1861: SO1861-EMCH conjugated via cysteine residues to cetuximab, cleavable hydrazone linker
IC50 (HeLa cells): 400 nM | IC50 (MDA-MB-468 cells; [2]): 6 nM | IC50 (MDA-MB-468 cells; [3]): 3 nM | IC50 (MDA-MB-468 cells; [4]): 18 nM | IC50 (A431 cells; conjugate titrated + fixed 50 pM trastuzumab-saporin (Example 14), read-out: IC50): 3 nM | IC50 (A431 cells; [2]): 8 nM | IC50 (A431 cells; [3]): 5 nM | IC50 (A431 cells; [4]): 12 nM | IC50 (A2058 cells; conjugate titrated + fixed 50 pM trastuzumab-saporin (Example 14)): > 400 nM | tumor size (volume) (human A431 tumor cells; Balb/c nude mice, treatment alone, sub-optimal dose): 2000 mm^3 | outcome (death/euthanasia or survival) (human A431 tumor cells; treatment alone): death/euthanasia

Cetuximab: monoclonal antibody recognizing and binding human EGFR [reference compound]
tumor volume change (human A431 tumor cells; cetuximab positive control alone): only tumor growth inhibition, but no regression | outcome (death/euthanasia or survival) (human A431 tumor cells; treatment alone): (death/euthanasia)

Trastuzumab-SO1861: SO1861-EMCH conjugated via cysteine residues to trastuzumab, cleavable hydrazone linker
IC50 (MDA-MB-468 cells; conjugate titrated + fixed 1.5 pM EGFdianthin (Example 14), read-out: IC50): > 1000 nM

Where two headings read alike, the source gives them in different places.
